As a reminder, the EC50 is the midpoint of the concentration-response curve.

Where only a bound is given, the exact number is not on record here.

This test has as its system Bmi-1 protein. The experiment in a line: Sandwich ELISA Assay (Bmi-1 protein level in HT-1080 cells after compound treatment). The format is cell-based. The following applies: read-out: ELISA EC50 value for Bmi-1 protein, Table 1, Bmi-1 sandwich ELISA. The procedure: Cell Seeding and Compound Treatment (Day 1):
HT-1080 cells were seeded at 8000 cells/well (50 μL) in 96-well tissue culture plates. After the cells became adherent (3-4 hours), 2× diluted stocks of test compounds in 50 μL DMEM containing 1% DMSO (final DMSO concentration was 0.5%) were added and the plates were incubated at 37° C. under 5% CO2 for 40-48 hours.
ELISA Plate First Antibody Preparation (Day 2):
The First Antibody (Millipore Mouse, monoclonal to mouse Bmi-1, clone F6, catalog #05-637) diluted to […] in PBS was added (100 μL) to each well of a Nunc MaxiSorp 96-well ELISA plate. The plate was covered with a plate seal and allowed to stand overnight.
Cell Lysate Preparation (Day 3):
Fresh Lysis buffer (1×) was prepared on the day of the assay as follows: 1 mM EDTA, 150 mM NaCl, 0.5% Triton-X 100, 10 mM NaF, 20 mM B-Glycerophosphate, 1 mM DTT (in PBS, pH 7.2-7.4) and HALT protease inhibitor cocktail (lx) (Pierce #78410).
A standard curve was prepared at the following Bmi-1 concentrations: 8000, 4000, 2000, 1000, 500, 250, 125 and 0 pg/mL. […]
The plate was washed and blotted dry, then a previously prepared TMB substrate (TMB substrate kit, Pierce catalog #34021) (prepared by mixing kit reagents 1:1) (100 μL) was added per well. […] The plates were read at OD450 (experimental) and OD570 (reference).
(In general: ELISA stands for enzyme-linked immunosorbent assay.)

For the compound `COc1ccc(Nc2cncc(-c3c(C(F)(F)F)nc4ccccn34)n2)cc1` [Cpd 5, N-(4-methoxyphenyl)-6-[2-(trifluoromethyl)imidazo[1,2-a]pyridin-3-yl]pyrazin-2-amine], the 50% effective concentration (EC50) was less than 1 nM.
